In PubChem BioAssay AID485314 (National Center for Advancing Translational Sciences (NCATS), 2010):
This is a selection; strong and weak results do not stand in their true shares. Records with an inconclusive call do not appear. Calls of active or inactive are those of the source. Calls come from the whole dose curve; as a rule, active = well fitted inhibition curve with a large enough effect; inconclusive = small, poorly fitted or top-dose-only effect, or another doubt; inactive = no such curve, though single readings can be large or run the other way.

Each molecule was assayed against DNA polymerase beta (Homo sapiens) (UniProt P06746) (assay: qHTS Assay for Inhibitors of DNA Polymerase Beta). Conditions: Pol beta primer extension/strand displacement, fluorescence kinetic; series mostly up to 114 µM; activity change, negative = inhibition: at the top concentration.
Text: The base excision repair system in human cells is a target for therapeutic modulation of the response to irradiation treatment and DNA-damaging drugs. A key enzyme in this system is the bi-functional DNA polymerase known as DNA polymerase Beta (Pol Beta). The following is a homogeneous kinetic assay to study the primer extension and strand-displacement reaction catalyzed by pol beta.
A stepwise description of the 1536-well assay is shown in next Table. Three microliters of reagents (buffer in column 3 and 4 as negative control and 10 nM Pol beta in columns 1, 2, and 5-48) was dispensed into 1,536-well black solid-bottomed plate. Compounds (23 nL) were transferred via Kalypsys pin tool equipped with 1536-pin array (10 nL slotted pins, V&P Scientific, San Diego, CA). The plates were incubated for 15 min at room temperature, and 1 uL substrate (50 nM final concentration) were added to start the reaction and immediately read at 0 min read on Viewlux reader. The plate were further incubated for 10 min at room temperature, and then read on Viewlux again. Throughout the screen, reagent bottle and all liquid lines were chilled and made light-tight to minimize reagent degradation. All screening operations were performed on a fully integrated robotic system (Kalypsys, San Diego, CA) containing one RX-130 and two RX-90 anthropomorphic robotic arms (Staubli, Duncan, SC). Library plates were screened starting from the lowest and proceeding to the highest concentration, and a double-dipping step of the highest concentration was required to access higher concentrations of compounds. Vehicle-only plates, with DMSO being pin-transferred to the entire column 5-48 compound area, were inserted uniformly at the beginning and the end of each library in order to monitor for and record any shifts in the background, which can be affected by reagent dispensers or loss in enzyme activity overtime. Screening data were corrected, normalized, and concentration-effect relationships were derived by using publicly-available curve fitting algorithms developed in-house (http://ncgc.nih.gov/pub/openhts). A four parameter Hill equation was fitted to the concentration-response data by minimizing the residual error between the modeled and observed responses.
% is set by controls: 0 for no effect and ±100 for the full control effect; potency is the fitted concentration of half-maximal effect.

SMILES | activity change, negative = inhibition | Potency
O=[N+]([O-])c1cc([N+](=O)[O-])c(CCNc2ccccc2)c([N+](=O)[O-])c1 | inactive: -3.23% | 
COc1ccc(C2=NCC(CBr)S2)cc1 (stereo not drawn) | inactive: 0.629% | 
CCC(C)N(CC(C)C)C(=S)SC(NC(C)=O)C(Cl)(Cl)Cl (stereo not drawn) | inactive: 13.3% | 
CCOC(=O)c1ccc(NC(=O)C(C)(CCl)SC)cc1 (stereo not drawn) | inactive: 16.1% | 
O=C(OC1CN2CCC1CC2)c1cccc([N+](=O)[O-])c1 (stereo not drawn) | inactive: 39.6% | 
O=C(COc1ccccc1)OC1CN2CCC1CC2 (stereo not drawn) | inactive: -1.84% | 
O=C(Nc1ccncc1[N+](=O)[O-])c1ccc([N+](=O)[O-])cc1[N+](=O)[O-] | inactive: 20% | 
COP1(=S)c2c(C)nn(CCC#N)c2N=C(c2ccc(F)cc2)N1C (stereo not drawn) | inactive: -20.3% | 
Cc1cc(SC(NC=O)C(Cl)(Cl)Cl)ncn1 (stereo not drawn) | inactive: 0.39% | 
CCOC(=O)Nc1cccc([As](=O)(O)O)c1 | inactive: -19.3% | 
CCCCOc1ccc(C(=O)NCC2(N3CCCCC3)CCCCC2)cc1OC | inactive: -10.1% | 
Cc1cc(SC(NC(=O)c2ccccc2)C(Cl)(Cl)Cl)nc(C(C)C)n1 (stereo not drawn) | inactive: 1.12% | 
CCN(CC)C(=S)SC(NC=O)C(Cl)(Cl)Cl (stereo not drawn) | inactive: 38% | 
CC(C)NC(=O)NP(=O)(Oc1ccccc1)Oc1ccccc1 | inactive: 22.7% | 
O=[N+]([O-])c1cc([N+](=O)[O-])c(-c2ccn[nH]2)s1 | inactive: -13.5% | 
CC(C)c1ccc(OP(=O)(Nc2ccccn2)Oc2ccccc2F)cc1 (stereo not drawn) | inactive: -1.07% | 
ClCCSc1nnc(-c2cccnc2)o1 | inactive: 1.67% | 
Cc1ccc2nc3c(c(C)c2c1)CC(C(Cl)Cl)S3 (stereo not drawn) | inactive: -0.36% | 
Cc1ccc(OP(=O)(Nc2ccc([N+](=O)[O-])cn2)Oc2ccc(C)cc2)cc1 | inactive: -7.49% | 
C[As](=O)(O)c1cccc(C(=O)O)c1 | inactive: -1.58% | 
O=[As](O)(c1ccc(O)cc1)c1ccccc1O | inactive: 3.84% | 
COc1ccc(N/C(=N/P(=O)(N2CCOCC2)N2CCOCC2)N2CCOCC2)cc1 | inactive: -14.9% | 
COc1ccc2nc(NP(=O)(c3ccccc3)c3ccccc3)sc2c1 | inactive: 0.276% | 

SMILES | activity change, negative = inhibition | Potency
COc1cc(I)ccc1[As](=O)(O)O | inactive: 4.35% | 
O=C(OC1CN2CCC1CC2)C12CC3CC(CC(C3)C1)C2 (stereo not drawn) | inactive: 0.874% | 
Cc1cc(=O)[nH]c(N[N+](=O)[O-])n1 | inactive: -27.3% | 
COc1cc(C2NCCC3(OCCO3)C2(C)C)cc(OC)c1OC (stereo not drawn) | inactive: 17.2% | 
CCOP(=O)(Nc1cccc2ccccc12)OCC | inactive: 3.35% | 
CCCOP(=S)(Nc1nc(N)cc(=O)[nH]1)OCCC | inactive: 19.3% | 
Cc1ccc(NCCc2c([N+](=O)[O-])cc([N+](=O)[O-])cc2[N+](=O)[O-])cc1 | inactive: -7.51% | 
Nc1cccc2c([As](=O)(O)O)cccc12 |  | active: 28.2 µM
O=[As](O)(c1cccc(O)c1)c1cccc(O)c1 | inactive: 23.2% | 
Cc1cccc(OCC(=O)OC2CN3CCC2CC3)c1 (stereo not drawn) | inactive: 3.68% | 
COc1cc(C(=O)NCC2(N3CCOCC3)CCCCC2)cc(Cl)c1OC(C)C | inactive: 28.6% | 
O=[As](O)(O)c1cccnc1 | inactive: 35.2% | 
CS(=O)(=O)c1ccc(Cl)c(NC(=O)COC(=O)C(O)(c2ccccc2)c2ccccc2)c1 | inactive: 1.05% | 
O=C(OC1CN2CCC1CC2)c1ccc(Cl)cc1 (stereo not drawn) | inactive: -8.5% | 
CN(C(=O)Cc1ccc(Cl)c(Cl)c1)[C@@H]1CC[C@]2(CCCO2)C[C@H]1N1CCCC1 | inactive: 25.8% [at 57.1 µM] | 
O=[N+]([O-])c1ccc2c(c1)nnn2O | inactive: -1.95% | 
CN(C(=O)Cc1ccccc1)[C@@H]1CC[C@]2(CCCO2)C[C@H]1N1CCCC1 |  | inactive
CCOP1(=S)c2c(C)nn(CCC#N)c2N=C(c2ccc(F)cc2)N1C (stereo not drawn) | inactive: -10.3% | 
NC(=O)Nc1ccc([As](=O)(O)O)cc1 | inactive: -9.53% | 
Nc1ccccc1[As](=O)(O)c1ccccc1 | inactive: -7.81% | 
O=C(O)COc1ccc([As](=O)(O)O)cc1[N+](=O)[O-] | inactive: 1.92% | 
CS(=O)(=O)c1cc([N+](=O)[O-])c2no[n+]([O-])c2c1 | inactive: 22.3% | 
CCOP1(=S)c2c(C)nn(CCC#N)c2N=C(c2ccccc2F)N1C (stereo not drawn) | inactive: 2.67% | 

SMILES | activity change, negative = inhibition | Potency
O=P(Nc1nccs1)(c1ccccc1)c1nc2ccccc2s1 (stereo not drawn) | inactive: -9.36% | 
O=P(Nc1nccs1)(Oc1ccccc1)Oc1ccccc1 | inactive: -1.85% | 
O=P1(Nc2ccc(Br)cn2)COc2ccccc2OC1 | inactive: 4.27% | 
Cc1ccc(OCC(=O)OC2CN3CCC2CC3)cc1 (stereo not drawn) | inactive: 14.5% | 
O=[As](O)(c1cccs1)c1cccs1 | inactive: 13.4% | 
Nc1cccc([As](=O)(O)c2ccccc2)c1 | inactive: 0.0057% | 
O=P1(Nc2ncccn2)COc2ccccc2OC1 | inactive: -14.4% | 
O=C(/C=C/c1ccccc1)OC1CN2CCC1CC2 (stereo not drawn) | inactive: 3% | 
CN(C)C1(CNC(=O)c2ccc(S(C)(=O)=O)cc2)CCCCC1 | inactive: 20% | 
Cc1nn(-c2ccccc2)c2c1P(=O)(N1CCOCC1)N(C)C(c1ccccc1)=N2 (stereo not drawn) | inactive: 0.681% | 
CC1CCC(C(C)C)C(OP(=O)(Nc2ccccn2)c2ccccc2)C1 (stereo not drawn) | inactive: -0.946% | 
Cc1ccc(C(=O)OC2CN3CCC2CC3)cc1 (stereo not drawn) | inactive: 7.97% | 
O=[As](O)(c1ccccc1Br)c1ccccc1Br | inactive: -18.3% | 
CC(C)/C=N\N=C(\N)N[N+](=O)[O-] | inactive: -28.7% | 
CN(C(=O)Cc1ccc(Cl)c(Cl)c1)[C@@H]1CCCC[C@H]1N1CCCC1 |  | inactive
Clc1n[nH]nc1-c1nn[nH][15n]1 | inactive: -1.68% | 
CC(C)(C)C(=O)NC(Sc1ncccn1)C(Cl)(Cl)Cl (stereo not drawn) | inactive: 87.6% | 
CN(CCCl)Cc1cc(Cl)c(NC2=NCCN2)c(Cl)c1 | inactive: 11.5% [at 57.1 µM] | 
CCOP(=O)(Nc1ccc(C)cn1)OCC | inactive: 15.6% | 
O=P1(Nc2ccccn2)COc2ccccc2OC1 | inactive: 1.04% | 
CCC1=CC2Cc3nc4ccc(Cl)cc4c(N)c3C(C1)C2 (stereo not drawn) | inactive: 0.0204% | 
CCOP(=O)(NC(=NC(C)c1ccccc1)NC(C)c1ccccc1)OCC (stereo not drawn) | inactive: 13.8% | 
